US11273167B2, “Compositions and methods for modulating ABHD2 activity” (The Regents of the University of California, priority 2015, dated 2022)

How the values were obtained:
human CatSper channel = assay: Whole-cell patch-clamp recording of CatSper currents (ICatSper) from human spermatozoa; settings: human spermatozoa
Description: All CatSper recordings was performed as described in (Lishko et al., 2013; Lishko et al., 2011). Briefly, gigaohm seal between the patch pipette and human spermatozoon was formed at the cytoplasmic droplet. Spermatozoa were patched either at the cytoplasmic droplet or, if the cytoplasmic droplet was inconspicuous, at the neck region. Seals were formed in high saline (HS) solution containing: 130 mM NaCl, 5 mM KCl, 1 mM MgSO4, 2 mM CaCl2, 5 mM glucose, 1 mM sodium pyruvate, 10 mM lactic acid, 20 mM HEPES, pH 7.4 adjusted with NaOH, 320 mOsm/L. Transition into the whole-cell mode was performed by applying short voltage pulses. Access resistance was 25-40 M. Cells were stimulated every 5 s. Data were sampled at 2-5 kHz and filtered at 1 kHz. […] Data were analysed with Origin 7.0 and Clampfit 9.2. Statistical data were calculated as the mean±S.E.M., and (n) indicates number of experiments. […] The data were fitted with Boltzmann equation y=1/(1+exp((x−t)/dx)) and mean ti numbers were determined from (n) independent experiments. […]
Data were analyzed with Origin 7.0 and Clampfit 9.2. Statistical data were calculated and represented everywhere in text as the mean±S.E.M., and (n) indicates number of experiments. […] The data were fitted with Boltzmann equation y=1/[1+exp((x−τ)/dx)] and mean τ numbers were determined from (n) independent experiments. […]

human spermatozoa = assay: Sperm motility analysis (CASA); format: cell-based; settings: MAFP 2 μM pre-incubation, progesterone 3 μM
mouse spermatozoa = assay: Acrosome exocytosis assessment in live capacitated mouse sperm; format: cell-based; settings: 2 μM MAFP pre-incubation

methyl arachidonyl fluorophosphanate
effect on prostaglandin E1 (PGE1)-stimulated CatSper activation (human CatSper channel): no appreciable influence
effect on nascent/basal CatSper current (human CatSper channel; extracellular application): no effect on basal CatSper activity
effect on P4-induced motility changes (human spermatozoa): ablated P4-induced motility changes
effect on P4-stimulated mouse acrosome reaction (mouse spermatozoa): blocks the P4 effect
